Biological target: bovine GRK5 (Bos taurus, UniProt P43249)
Assay: GRK5 kinase inhibition
Conditions: read-out: GRK5 IC50; average of three separate experiments run in duplicate; error of the mean

Chains of the proteins cited; added tags and fusions are not shown.
UniProt P43249, whole entry: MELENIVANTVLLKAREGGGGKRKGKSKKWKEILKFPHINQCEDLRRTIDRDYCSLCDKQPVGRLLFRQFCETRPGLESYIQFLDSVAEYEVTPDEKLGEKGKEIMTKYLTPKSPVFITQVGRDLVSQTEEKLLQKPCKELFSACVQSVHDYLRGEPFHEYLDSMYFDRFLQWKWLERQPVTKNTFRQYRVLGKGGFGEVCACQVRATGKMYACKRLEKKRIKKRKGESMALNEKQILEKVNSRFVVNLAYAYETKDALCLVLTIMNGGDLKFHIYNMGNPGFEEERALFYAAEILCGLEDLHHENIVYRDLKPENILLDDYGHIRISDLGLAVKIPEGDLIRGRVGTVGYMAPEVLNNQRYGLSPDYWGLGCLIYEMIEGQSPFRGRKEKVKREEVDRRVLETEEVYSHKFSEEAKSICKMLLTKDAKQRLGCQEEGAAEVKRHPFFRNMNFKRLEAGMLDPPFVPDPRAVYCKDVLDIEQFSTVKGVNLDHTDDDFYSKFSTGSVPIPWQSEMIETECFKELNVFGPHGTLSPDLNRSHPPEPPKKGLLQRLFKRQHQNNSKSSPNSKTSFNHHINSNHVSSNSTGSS

O=C(NCc1ccn[nH]1)c1cc([C@@H]2CCNC[C@H]2COc2ccc3c(c2)OCO3)ccc1F [14as, N-((1H-pyrazol-5-yl)methyl)-5-((3S,4R)-3-((benzo[d][1,3]dioxol-5-yloxy)methyl)piperidin-4-yl)-2-fluorobenzamide]
IC50: 7.09 ± 0.73 µM

From article PMC5641445 (Journal of medicinal chemistry, 2017)
